Results published in PubChem BioAssay AID686964 (The Scripps Research Institute Molecular Screening Center, 2013).
This is a selection; strong and weak results do not stand in their true shares. Activity calls are given as the source filed them. No stated cut-off is given here; in the data, active means inhibition above about 13%; inactive means the rest.

By UniProt entry, the sequences of proteins in these tests, tags left out.
UniProt Q9UBB5, whole entry: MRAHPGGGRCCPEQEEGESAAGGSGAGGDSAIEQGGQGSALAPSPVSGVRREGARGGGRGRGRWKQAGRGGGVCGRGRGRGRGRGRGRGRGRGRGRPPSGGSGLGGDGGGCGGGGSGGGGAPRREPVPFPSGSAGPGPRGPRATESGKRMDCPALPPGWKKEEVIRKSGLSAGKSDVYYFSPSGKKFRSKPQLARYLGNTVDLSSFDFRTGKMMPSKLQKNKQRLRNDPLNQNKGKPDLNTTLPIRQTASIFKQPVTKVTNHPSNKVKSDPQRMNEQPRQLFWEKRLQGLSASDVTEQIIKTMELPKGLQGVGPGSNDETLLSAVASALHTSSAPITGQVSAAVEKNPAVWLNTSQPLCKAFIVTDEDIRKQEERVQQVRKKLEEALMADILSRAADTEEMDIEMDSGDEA

What follows are compounds tested against Methyl-CpG-binding domain protein 2 (Homo sapiens) (UniProt Q9UBB5) (assay: inhibitors of MBD2 binding to methylated DNA, primary screen, biochemical, TR-FRET, DNA-binding domain, human (AID 686964)). Details: MBD2 binding to methylated oligonucleotide, at 4.4 µM, stronger effect = higher value.

SMILES	inhibition
CCC(=O)N(c1ccccc1)C1(COC)CCN(CCn2nnn(CC)c2=O)CC1	inactive: -1.11%
CCC(=O)N(c1ccccc1)C1(COC)CCN(CCc2cccs2)CC1	inactive: -4.03%
